pKi: −log10 of the molar value.
Target: 5-hydroxytryptamine receptor 1A (Rattus norvegicus, UniProt P19327)
Test: Tested for binding affinity against 5-hydroxytryptamine 1A receptor from rat frontal cortical regions using [3H]8-OH-DPAT as radioligand

Chains of the proteins cited; added tags and fusions are not shown.
UniProt P19327, whole entry: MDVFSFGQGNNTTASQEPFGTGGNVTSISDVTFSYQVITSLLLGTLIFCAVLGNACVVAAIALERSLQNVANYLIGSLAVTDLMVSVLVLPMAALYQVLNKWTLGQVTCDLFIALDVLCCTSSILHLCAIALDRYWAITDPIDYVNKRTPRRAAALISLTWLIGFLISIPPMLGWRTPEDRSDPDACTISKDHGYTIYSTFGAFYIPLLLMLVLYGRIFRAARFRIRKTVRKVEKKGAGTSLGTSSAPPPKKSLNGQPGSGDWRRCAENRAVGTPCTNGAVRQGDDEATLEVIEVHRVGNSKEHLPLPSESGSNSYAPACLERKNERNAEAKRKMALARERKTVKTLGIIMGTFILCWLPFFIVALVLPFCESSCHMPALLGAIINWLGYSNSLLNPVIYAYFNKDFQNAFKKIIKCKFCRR

Question: `O=C(NC1CCN(CCCOc2ccc(F)cc2)CC1)c1ccccc1` was tested. Which pKi did it give?
Answer: 5.40
